# Laboratory results from patent US12551487B2, “PI3K inhibitor for use in the therapy of b cell lymphoma” (Convalife (Shanghai) Co. Limited, priority 2019, dated 2026).
# Several values for one entry are separate records, joined by “and”; a condition that tells them apart may be missing. Equal entries are not always repeated.
# Tested on: patients with relapsed or refractory B cell lymphoma
# Experiment: Clinical study of daily oral compound in patients with relapsed or refractory B cell lymphoma (dose cohorts 50-400 mg daily)
# Conditions: per patient
compound,measurement,setting,value
"c1cc(-c2nc(N3CCOCC3)c3oc4ncc(CN5C[C@@H]6C[C@H]5CO6)cc4c3n2)c2cc[nH]c2c1 [Compound A, 4-(1H-Indol-4-yl)-6-(morpholin-4-yl)-12-[(1S,4S)-2-oxa-5-azabicyclo[2.2.1]heptan-5-ylmethyl]-8-oxa-3,5,10-triazatricyclo[7.4.0.0^2,7]trideca-1(13),2(7),3,5,9,11-hexaene]",Drug Holiday,"Cohort 1, 50 mg daily",14 days and 16 days
same,Drug Holiday,"Cohort 3, 200 mg daily",20 days
same,Drug Holiday: event causing it,"Cohort 3, 200 mg daily",infection)
same,Drug Holiday,"Cohort 4, 400 mg daily",42 days and 28 days and 16 days
